Target: T1, PPARγ (Homo sapiens, UniProt P37231)
T1 construct: expressed in transfected cells; host or cells: HEK293
Assay: Transactivation of PPARγ in absence of RXR
Format: cell-based
Conditions: Additional file 1E

By UniProt entry, the sequences of proteins in these tests, tags left out.
UniProt P37231, whole entry, species assumed: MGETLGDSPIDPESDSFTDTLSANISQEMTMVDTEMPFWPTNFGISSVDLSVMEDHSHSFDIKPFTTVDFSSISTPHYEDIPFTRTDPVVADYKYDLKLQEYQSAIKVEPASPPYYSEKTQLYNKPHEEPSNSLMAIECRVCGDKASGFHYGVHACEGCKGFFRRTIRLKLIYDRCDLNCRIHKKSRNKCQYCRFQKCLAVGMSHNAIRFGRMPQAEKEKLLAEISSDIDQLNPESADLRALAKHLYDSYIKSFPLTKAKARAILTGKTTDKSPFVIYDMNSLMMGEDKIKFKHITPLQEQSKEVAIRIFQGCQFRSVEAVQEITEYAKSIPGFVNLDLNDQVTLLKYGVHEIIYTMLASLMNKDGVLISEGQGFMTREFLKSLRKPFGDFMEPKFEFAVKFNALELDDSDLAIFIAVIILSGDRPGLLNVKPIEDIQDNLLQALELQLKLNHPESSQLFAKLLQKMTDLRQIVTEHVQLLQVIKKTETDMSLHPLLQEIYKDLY

In the case of `CN(CCOc1ccc(CC2SC(=O)NC2=O)cc1)c1ccccn1` (stereo not shown) [rosiglitazone], the “Activation of PPARγ in absence of RXR” value is reported as “activated”.

Reference: paper PMC4138375, “CNX-013-B2, a unique pan tissue acting rexinoid, modulates several nuclear receptors and controls multiple risk factors of the metabolic syndrome without risk of hypertriglyceridemia, hepatomegaly and body weight gain in animal models” (Diabetology & Metabolic Syndrome, 2014)
